From PubChem
TDP1 cell CPT – growth inhibition of DT40 Tdp1-/-;hTDP1 cells with camptothecin (screen for TDP1 inhibitors) | Potency, µM (doses to about 46.2 µM), most hits filed as inhibitors | chicken DT40 Tdp1-/-;hTDP1 cells + 20 nM CPT, ATP luminescence, 48 h | actives 12% (n = 420,000) | AID 686979; further: nearly all actives have a fitted effect of over 55% in size
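Chicken DT40 Tdp1-/- cells complemented with human TDP1, 400 cells/well, exposed to compounds plus 20 nM camptothecin for at least 48 h at 37 C; viability read as ATP content by CellTiter-Glo luminescence.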
miR-21 FLuc – miR-21 reporter, rising signal; 340,000 tested, under 10 active; Potency, µM (highest dose often 38.3 µM); HeLa miR-21 FLuc reporter, luciferase, 48 h; active = well fitted rising curve with a large enough effect; inconclusive = small, poorly fitted or top-dose-only effect; inactive = no such curve, though single readings can be large or run the other way;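 further: miR-21 action dims this reporter so a rising signal means less miR-21 action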
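HeLa miR-21-FLuc reporter line, endogenous miR-21; 2000 cells/well in DMEM/10% FBS; compound titration up to ~40uM final, 48 h, 37 degree Celsius; luciferase detection reagent, 15 min lysis, CCD luminescence.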
TDP1 cell noCPT – qHTS for Inhibitors of human tyrosyl-DNA phosphodiesterase 1 (TDP1): qHTS in cells in absence of CPT; Potency, µM (titrated, usually from 46.2 µM), most hits filed as inhibitors; actives 15% (n = 420,000); DT40 Tdp1-/- hTDP1 cells, no CPT, ATP luminescence, 48 h; further: nearly all actives have a fitted effect of over 55% in size
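Cells were dispensed at 400 per well, compounds added by pin tool, plates incubated ≥48 hr at 37 °C, then CellTiter-Glo added for 30 min at room temperature before luminescence reading. Line: DT40 Tdp1-/- complemented with hTDP1; camptothecin omitted.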
TDP1 block – TDP1 (human) enzyme inhibition; recombinant TDP1, AlphaScreen DNA substrate cleavage; Potency, µM (highest dose often 130 µM), actives largely listed as inhibitors; AID 485290; actives 0.28% (n = 350,000); further: nearly all actives have a fitted effect of over 40% in size
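Recombinant human Tdp1 (E. coli-expressed, 1 nM final) preincubated with compounds 15 min at room temperature, then 5'-biotin/3'-phosphotyrosine-FITC DNA substrate (15 nM final) added for 5 min. AlphaScreen beads (10 ug/ml final) added 10 min; cleavage lowers signal.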
uPA surface inh – blocks generation of uPA at the cell surface | Potency, µM (top dose mostly 38.3 µM), hits mostly inhibitors | actives 0.31% (n = 330,000) | AID 540303 | cell surface uPA generation assay, qHTS; active means well fitted inhibition curve with a large enough effect; inconclusive means small, poorly fitted or top-dose-only effect; inactive means no such curve, though single readings can be large or run the other way; tested in mouse RAW 264.7 cells; further: nearly all actives have a fitted effect of over 55% in size
Numbers stand for hits; – = inactive; ? = inconclusive; · = no result given; [ ] = remark or other dose. In the library only some 16% were active in any assay of this set; here they are far more common. Unless noted, the call rests on the fitted dose curve; in most records, active means well fitted curve in the direction sought with a large enough effect; inconclusive means small, poorly fitted or top-dose-only effect, or another doubt; inactive means no such curve, though single readings can be large; an effect the other way counts as inactive or inconclusive.

SMILES	TDP1 cell CPT	miR-21 FLuc	TDP1 cell noCPT	TDP1 block	uPA surface inh
O=C1c2ccccc2C(=O)N1CCOc1cccc(Br)c1	–	–	–	–	–
Cc1ccc2c(c1)C(=O)C(=O)N2CCOc1ccccc1	0.58µM	–	0.73µM	–	–
Cc1ccc(CN(C(=O)COc2cccc([N+](=O)[O-])c2)c2ccccn2)o1	?	–	?	–	·
Cc1ccc(CN(C(=O)COc2cccc([N+](=O)[O-])c2)c2ccccn2)cc1	?	–	21µM	–	·
COc1cc(CN(C(=O)COc2ccc(Br)cc2)c2ccccn2)cc(OC)c1OC	16µM	–	16µM	–	·
Cc1ccc(OCC(=O)N(Cc2ccccc2)c2ccccn2)cc1	–	–	–	–	–
COc1cc(CN(C(=O)COc2ccc(C)cc2)c2ccccn2)cc(OC)c1OC	8.2µM	–	9.2µM	–	·
Cc1ccc(CN(C(=O)COc2ccc(Cl)c(C)c2)c2ccccn2)o1	?	–	15µM	–	·
CN(CC(=O)NCc1ccccc1Cl)CC(=O)Nc1ccccc1Br	?	·	?	–	–
O=c1[nH]c(C(F)(F)F)nc2c1nc1n2CCC1	–	·	–	·	·
COc1cc(CN(C(=O)COc2ccccc2Cl)c2ccccn2)cc(OC)c1OC	?	–	18µM	–	·
COc1cc(CN(C(=O)COc2ccc(Cl)c(C)c2)c2ccccn2)cc(OC)c1OC	12µM	–	10µM	–	·
CCn1ncc([N+](=O)[O-])c1C(=O)Nc1ccc(C(=O)N2CCCCC2)cc1	–	–	?	–	–
CCCCCCCCN1C(=O)[C@H](CC(=O)N2CCSCC2)C[C@@]2(C(=O)OCC)CCCC=C12	21µM	·	21µM	·	·
CCCCCCCCN1C(=O)[C@H](CC(=O)N2CCOCC2)C[C@@]2(C(=O)OCC)CCCC=C12	12µM	·	9.2µM	·	·
CCCCN1C[C@H](C)[C@@H](CC(=O)Nc2ccc(OC)cc2)C1=O	–	·	–	·	·
O=c1c(Cl)cc(Cl)nn1-c1ccccc1	2.1µM	?	1.5µM	–	–
O=C(COc1ccccc1C(=O)Nc1ccccc1)Nc1ccc(-c2ccccc2)cc1	?	·	11µM	·	·
COc1ccccc1NC(=O)COc1ccccc1C(=O)Nc1ccccc1	?	–	?	–	–
Cc1ccccc1NC(=O)c1ccccc1OCC(=O)Nc1ccc(Br)cc1	?	·	14µM	·	·
CCOc1ccccc1C(=O)NCC(=O)Nc1ccc(-c2ccccc2)cc1	–	–	?	–	–
N#Cc1ccccc1NC(=O)COc1ccccc1C(=O)Nc1ccccc1	16µM	·	?	–	–
O=C(Oc1ccccc1C(=O)Nc1ccccc1)c1ccccc1Br	18µM	–	21µM	–	–
O=C(Nc1ccccc1)c1ccccc1OS(=O)(=O)c1ccccc1	–	–	–	–	–
CCOC(=O)c1ccccc1NC(=O)c1ccc2nccnc2c1	?	–	?	–	–
SMILES	TDP1 cell CPT	miR-21 FLuc	TDP1 cell noCPT	TDP1 block	uPA surface inh
COc1cc(NC(=O)C2C3C=CC(C3)C2C(=O)O)ccc1NC(=O)c1ccccc1 (stereo not given)	–	–	–	–	–
Cc1ccc(NC(=O)CN(C)C(=O)COC(=O)CCS(=O)(=O)c2ccc(C)cc2)cc1	–	–	–	–	–
O=C(c1ccncc1)N1CCC2(CCC(CNC(=O)C3(N4CCOCC4)CCCCC3)O2)CC1 (stereo not given)	–[9.04 µM]	·	–	·	·
Cc1ccccc1NC(=O)COc1ccccc1C(=O)Nc1ccccc1	–	·	–	·	·
CC(OC(=O)c1ccccc1OCC(=O)Nc1ccc(Br)cc1)C(=O)NC1CCCC1 (stereo not given)	8.9µM	·	10µM	·	·
O=C(COc1ccccc1C(=O)Nc1ccccc1)Nc1ccc2ccccc2c1	?	·	20µM	·	·
O=C(COc1ccccc1C(=O)Nc1ccccc1)Nc1ccccc1-c1ccccc1	13µM	·	?	·	·
CS(=O)(=O)c1ccc(NC(=O)COc2ccccc2C(=O)Nc2ccccc2)cc1	20µM	·	?	·	·
COC(=O)c1ccccc1OCC(=O)NC1CCCCC1	–	–	–	–	–
Cn1c(=O)n(CC(N)=O)c(=O)c2c1nc1n2CCCN1Cc1ccccc1	–	–	–	·	–
CC(C)COP(=O)(c1ccc(N(C)C)cc1)C(O)c1ccccn1 (stereo not given)	–	–	–	–	–
